According to paper PMC9319256, “Human Enzyme PADI4 Binds to the Nuclear Carrier Importin α3” (Cells, 2022):

Key:
[1] = target: T1, Impα3 (Homo sapiens, UniProt O00629); assay: Isothermal titration calorimetry (ITC), Impα3; format: binding; settings: for ΔG / n (binding stoichiometry or percentage of binding-competent protein) / ΔH (binding enthalpy): Impα3, pH 7.5, 25 °C
T1 construct: made in house
T1 sequence (O00629 1-521): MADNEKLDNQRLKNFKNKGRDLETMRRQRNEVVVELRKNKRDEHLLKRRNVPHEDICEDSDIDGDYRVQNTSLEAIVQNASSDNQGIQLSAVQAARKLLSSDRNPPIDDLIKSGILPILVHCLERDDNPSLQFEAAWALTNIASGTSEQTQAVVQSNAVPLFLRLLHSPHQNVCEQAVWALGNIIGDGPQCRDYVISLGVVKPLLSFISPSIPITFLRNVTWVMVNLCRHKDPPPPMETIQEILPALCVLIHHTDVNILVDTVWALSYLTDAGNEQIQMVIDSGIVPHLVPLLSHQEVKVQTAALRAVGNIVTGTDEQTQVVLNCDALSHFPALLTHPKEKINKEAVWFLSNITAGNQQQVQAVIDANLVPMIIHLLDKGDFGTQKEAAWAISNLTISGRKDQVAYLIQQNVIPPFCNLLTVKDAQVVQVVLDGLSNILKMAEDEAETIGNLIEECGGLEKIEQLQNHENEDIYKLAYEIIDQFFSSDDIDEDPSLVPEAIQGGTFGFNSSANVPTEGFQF
Protocol: Calorimetric titrations for testing the interaction of PADI4, as well as for the interaction of NLS1/2-PADI4 peptides, with both importins, Impα3 and ΔImpα3, were carried out in an Auto-iTC200 automated high-sensitivity calorimeter (MicroCal, Malvern-Panalytical, Malvern, UK). Experiments were performed in 20 mM Tris buffer (pH 7.5), 5 mM TCEP, 150 mM NaCl, and 5% glycerol at 25 °C. PADI4 or the peptide solution (100 μM) in the injection syringe was titrated into the importin solution (10 μM) in the calorimetric cell. The remaining experimental and processing details have been described previously. Due to the presence of glycerol in solution, background injection (included as an adjustable parameter in data fitting) was rather large. The data analysis was conducted in Origin 7.0 (OriginLab, Northampton, MA, USA) with user-defined fitting functions.

[2] = Far-UV CD of isolated peptide, deconvolution (DICHROWEB); format: physicochemical
Description: (§1) Far-UV CD spectra were collected on a Jasco J810 spectropolarimeter (Jasco, Tokyo, Japan) interfaced with a Peltier unit. The instrument was periodically calibrated with (+)-10-camphorsulfonic acid. A cell of path length 0.1 cm was used (Hellma, Kruibeke, Belgium). All spectra were corrected by subtracting the corresponding baseline. Concentration of each polypeptide (importin species and either NLS1/2-PADI4 or PADI4) and the buffers were the same used in the fluorescence experiments (Section 2.4).
(§2) Isothermal wavelength spectra of each isolated macromolecule and that of the complex were acquired as an average of six scans, at a scan speed of 50 nm/min, with a response time of 2 s and a bandwidth of 1 nm. Handling and preparation of samples were the same described in Section 2.4.1.

[3] = target: T1, Impα3; assay: Far-UV CD, complex versus addition spectrum, Impα3; format: binding; settings: 25 °C; average of six scans
Description: as §1, §2

[4] = target: T1, Impα3; assay: Steady-state fluorescence, complex versus addition spectrum, Impα3; format: binding; settings: 20 µM PADI4 or peptide, 2 µM Impα3; 50 mM sodium phosphate pH 7.0, 25 °C; excitation 280 or 295 nm; triplicates
Protocol: Spectra were collected on a Cary Varian spectrofluorometer (Agilent, Santa Clara, CA, USA), interfaced with a Peltier unit. Following the standard protocols used in our laboratories, the samples were prepared the day before and left overnight at 5 °C; before experiments, samples were left for 1 h at 25 °C, where experiments were acquired. A 1 cm pathlength quartz cell (Hellma, Kruibeke, Belgium) was used. The concentration of PADI4 or NLS1/2-PADI4 peptides was 20 µM, and that of each importin species was 2 µM. Samples containing the corresponding isolated peptides, the isolated PADI4, the isolated corresponding importin species, and the corresponding mixtures (at the concentrations indicated above) were prepared. Experiments were performed with samples in 50 mM sodium phosphate buffer, pH 7.0. Fluorescence experiments were repeated in triplicates with newly prepared samples. Variations of results among the experiments were lower than 5%.
Polypeptide samples were excited either at 280 or 295 nm (although NLS2-PADI4 has only a single […]). The other experimental parameters used in the experiments have been described elsewhere. Appropriate blank corrections were made in all spectra.

[5] = target: T1, Impα3; assay: Fluorescence titration of Impα3 with NLS1/2-PADI4; format: binding; settings: 25 °C
Protocol: For the titration between either Impα3 or ΔImpα3 and NLS1/2-PADI4, increasing amounts of the corresponding peptide, in the concentration range 0–20 µM, were added to a solution with a fixed concentration of either Impα3 or ΔImpα3 (3 µM). Experiments were carried out in the same buffer used for the titration of the intact PADI4 at 25 °C. The experimental setup was the same as in the steady-state fluorescence experiments. Blank corrections were subtracted in all cases. Spectra were corrected for inner-filter effects during fluorescence excitation. Each titration (Impα3 with NLS1/2-PADI4 or ΔImpα3 with NLS1/2-PADI4) was repeated three times, using newly prepared samples. In the three cases, the variations in the results were lower than 10%.
Handling and preparation of samples were the same described in Section 2.4.1. The dissociation constant for each complex, Kd, was calculated by fitting the binding isotherm constructed to the general binding model, explicitly considering ligand depletion. […] Fitting to Equation (2) was carried out using KaleidaGraph (Synergy software, Reading, PA, USA).

[6] = 95% confidence interval in parentheses
[7] = PADI4 or peptide (100 μM) titrated into Impα3 (10 μM), 20 mM Tris pH 7.5, 5 mM TCEP, 150 mM NaCl, 5% glycerol, 25 °C, 95% confidence interval in parentheses
[8] = k2D, 50 mM sodium phosphate pH 7.5, 25 °C

SMILES | ΔG [1] [kcal/mol] | n (binding stoichiometry or percentage of binding-competent protein) [1, 6] | ΔH (binding enthalpy) [1, 6] | Ka (association constant) [1, 7] | random coil fraction [2, 8] [%] | α-helix fraction [2, 8] [%] | β-sheet fraction [2, 8] [%] | change in far-UV CD spectrum of complex versus addition spectrum [3] | change in fluorescence spectrum of complex versus addition spectrum [4] | titration curve outcome ([5]; fluorescence at 330 nm, NLS1-PADI4 added to Impα3 (Figure 9B)) | Kd ([1]; PADI4 or peptide (100 μM) titrated into Impα3 (10 μM), 20 mM Tris pH 7.5, 5 mM TCEP, 150 mM NaCl, 5% glycerol, 25 °C, 95% confidence interval in parentheses, read-out: Kd (dissociation constant)) [µM] | random coil fraction ([2]; Contin or Selcon3, pH 7.5, 25 °C) [%] | Kd ([5]; fluorescence, 3 µM Impα3, 0–20 µM peptide, 20 mM Tris pH 7.5, 5 mM TCEP, 150 mM NaCl, 5% glycerol, titration repeated three times, read-out: dissociation constant) [µM]
CSCC[C@H](NC(=O)[C@@H](NC(=O)[C@H](CC(C)C)NC(=O)[C@@H](NC(=O)[C@@H](NC(=O)[C@H](CCC(=O)O)NC(=O)[C@@H](NC(=O)CNC(=O)[C@@H]1CCCN1C(=O)[C@H](CC(=O)O)NC(=O)[C@H](CC(C)C)NC(=O)[C@@H]1CCCN1C(=O)[C@H](Cc1c[nH]c2ccccc12)NC(=O)[C@@H](NC(=O)[C@H](CO)NC(=O)[C@H](CO)NC(=O)CNC(=O)[C@@H](NC(=O)[C@H](CO)NC(=O)[C@H](CCCCN)NC(=O)[C@H](CCCCN)NC(=O)[C@H](CCCCN)NC(=O)[C@H](C)NC(C)=O)[C@@H](C)O)[C@@H](C)O)C(C)C)C(C)C)[C@@H](C)O)[C@@H](C)O)C(=O)N[C@@H](CCCCN)C(=O)N[C@H](C(=O)N[C@@H](C)C(=O)N[C@@H](CO)C(N)=O)C(C)C [NLS1-PADI4] | -7.3 | 1.24 (1.15, 1.37) | −21.3 (−25.3, −18.8) kcal/mol | 2.3 (1.6, 3.0) 10^5 M^−1 | 54 | 9 | 37 | large changes | large ones | we could not monitor a reasonable titration curve within the constraints given by the experimental error |  |  | 
CC[C@H](C)[C@H](NC(=O)[C@H](CCCCN)NC(=O)[C@H](CCC(N)=O)NC(=O)[C@H](CCC(N)=O)NC(=O)[C@H](CCCCN)NC(=O)[C@H](CCCCN)NC(=O)[C@H](CCCCN)NC(=O)[C@H](CCCCN)NC(=O)[C@@H](NC(=O)CNC(=O)[C@H](CCC(=O)O)NC(=O)[C@H](Cc1ccccc1)NC(=O)[C@H](CC(C)C)NC(=O)[C@H](CC(C)C)NC(=O)[C@H](C)NC(=O)[C@H](CCC(=O)O)NC(=O)CNC(=O)[C@H](Cc1c[nH]cn1)NC(=O)CNC(=O)[C@H](CCC(=O)O)NC(=O)[C@H](CC(N)=O)NC(=O)[C@H](CCC(N)=O)NC(=O)[C@H](CCC(N)=O)NC(=O)[C@H](CCC(=O)O)NC(=O)[C@H](CCC(N)=O)NC(=O)[C@H](Cc1ccccc1)NC(=O)[C@H](CC(C)C)NC(=O)[C@H](CCCCN)NC(=O)[C@H](Cc1ccc(O)cc1)NC(C)=O)[C@@H](C)CC)C(N)=O [NLS2-PADI4] | -6.3 | 1.08 (0.98, 1.20) | −35.7 (−39.8, −31.1) kcal/mol | 0.43 (0.31, 0.57) 10^5 M^−1 | 55 | 5 | 40 | no changes | no large changes in the spectra |  | 23 | 64 | 4 ± 2
